Laboratory results published in US9999596B2 (priority 2004, dated 2018).
Where two headings read alike, the source gives them in different places.

Columns and labels:
[1] = female, Fischer 344, rat, in vivo
[2] = test system: A2780/AD (multidrug resistant) human ovarian carcinoma cells; assay type: cell-based

## CC[C@@]1(O)C(=O)OCc2c1cc1n(c2=O)Cc2cc3c(CN(C)C)c(O)ccc3nc2-1 [TPT, 9-amino-dimethyl-10-hydroxycamptothecin]
[1]; iv
  A/alpha (relative area of the distribution phase): 4421.42
  B/beta (relative area of the elimination phase): 1284.06
[1]; iv, 10 mg/kg
  A: 3730.35 ng/mL
  B: 146.05 ng/mL
  Beta/kel: 0.11 h⁻¹
  V: 1790.14 mL
[1]; sc, 10 mg/kg
  Beta/kel: 0.12 h⁻¹
  Ka: 2.31 h⁻¹
  V: 6601.83 mL
[2]
  Resistance Ratio: 2.21
